Experiment: Aqueous hydrolysis of polymer-bound menthyl ester (slurry in DI water, FTIR and odor)
Assay type: physicochemical
Experimental: The product of Example 1 (2 g of finely ground powder) was slurried with Dl water (18 g) in a sealed jar. […] It was agitated with a magnetic stirrer with gentle heat (36 to 37° C.) for 4 hours. The freeze-dried sample was evaluated by FTIR (as a KBR pellet).

[1] = slurry in DI water, 36 to 37° C., kept overnight

For “Menthyl Ester of Maleic Anhydride-Methyl Vinyl Ether Copolymer (Gantrez® AN) [Example 1]”, the “anhydride absorbance (FTIR)” value (2 g powder slurried in 18 g DI water, 36 to 37° C., agitated 4 hours, freeze-dried sample, KBr pellet) was “disappeared”, the “ester band at 1736 cm-1 (FTIR)” value (slurry in DI water, 36 to 37° C., 4 hours) was “persisted” and the “ester band (FTIR)” value [1] was “significantly reduced”. For the same substance, the “menthol odor of slurry” value [1] was “strong menthol odor” and the “menthol odor of slurry” value (slurry in DI water, at start, before heating) was “very faint menthol odor”.

Reference: patent publication US6464961B2, “Polymeric delivery and release systems for oral care actives” (ISP Investments Inc., priority 2000, dated 2002)
